What was measured:
[1] = Inhibition of human N-terminal His6-tagged Bcl2 isoform 2 expressed in Escherichia coli BL21(DE3) assessed as inhibition of Fluorescein-labeled BIM binding after 1 to 2 hrs by fluorescence polarization assay
Bcl-2-like protein 1 = Bcl-2-like protein 1 (Homo sapiens, UniProt Q07817); test: Inhibition of human N-terminal His8-tagged Bcl-XL expressed in Escherichia coli BL21(DE3) assessed as inhibition of Fluorescein-labeled BAK binding after 1 to 2 hrs by fluorescence polarization assay
[2] = Antiproliferative activity against human NCI-H146 cells after 4 days by WST8 assay; type: functional, cell-based; conditions: NCI-H146, 96 h
Outline: (§1)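 Growth inhibition was measured as described previously. IC50 values come from growth curves.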

Protein sequences, listed by entry. Tags and fused reporters are not part of them.
UniProt Q07817, whole entry: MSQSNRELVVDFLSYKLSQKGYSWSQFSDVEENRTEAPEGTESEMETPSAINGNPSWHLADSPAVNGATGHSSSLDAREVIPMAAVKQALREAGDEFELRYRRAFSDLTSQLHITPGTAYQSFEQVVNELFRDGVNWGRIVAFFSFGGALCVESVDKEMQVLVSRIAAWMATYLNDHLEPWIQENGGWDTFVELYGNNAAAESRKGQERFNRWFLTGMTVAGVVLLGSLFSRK

NCI-H1417 = test: Antiproliferative activity against human NCI-H1417 cells after 4 days by WST8 assay; type: functional, cell-based; conditions: NCI-H1417, 96 h; outline: as §1
NCI-H1963 = test: Antiproliferative activity against human NCI-H1963 cells after 4 days by WST8 assay; type: functional, cell-based; conditions: NCI-H1963, 96 h; outline: as §1

Row | IC50 (NCI-H1417) [nM] | IC50 (NCI-H1963) [nM] | Compound | IC50 [1] [nM] | IC50 (Bcl-2-like protein 1) [nM] | Ki (Bcl-2-like protein 1) [nM] | IC50 [2] [nM]
1 | – | – | Cc1c(C(=O)NCCCN2CCN(C)CC2)c(-c2cccc(N3CCN(c4ccc(C(=O)NS(=O)(=O)c5ccc(N[C@H](CCN(C)C)CSc6ccccc6)c([N+](=O)[O-])c5)cc4)CC3)c2)c(-c2ccc(Cl)cc2)n1C | 29 | 5 | 1.3 | –
2 | 93 | 19 | Cc1c(C(=O)O)c(-c2cccc(N3CCN(c4ccc(NS(=O)(=O)c5ccc(N[C@H](CCN(C)C)CSc6ccccc6)c([N+](=O)[O-])c5)cc4)CC3)c2)c(-c2ccc(Cl)cc2)n1C | – | – | – | 61

From ChEMBL document CHEMBL2157965, “Structure-based design of potent Bcl-2/Bcl-xL inhibitors with strong in vivo antitumor activity” (J Med Chem, 2012)
